Protein sequences, listed by entry. Tags and fused reporters are not part of them. Lines headed by an entry give the natural chain unless they say otherwise; changes in a name come on top.
UniProt P35372, whole entry, looked up: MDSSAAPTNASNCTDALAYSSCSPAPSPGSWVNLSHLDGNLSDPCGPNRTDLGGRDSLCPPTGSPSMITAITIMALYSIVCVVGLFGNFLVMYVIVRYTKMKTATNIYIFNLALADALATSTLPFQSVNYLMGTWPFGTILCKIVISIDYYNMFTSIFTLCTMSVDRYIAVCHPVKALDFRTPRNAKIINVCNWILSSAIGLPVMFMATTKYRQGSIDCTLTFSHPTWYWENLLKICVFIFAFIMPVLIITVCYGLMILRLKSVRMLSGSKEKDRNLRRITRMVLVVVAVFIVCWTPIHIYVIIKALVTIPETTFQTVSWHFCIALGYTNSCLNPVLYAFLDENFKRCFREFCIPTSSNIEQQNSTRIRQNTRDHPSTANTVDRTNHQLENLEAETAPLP
UniProt P41146: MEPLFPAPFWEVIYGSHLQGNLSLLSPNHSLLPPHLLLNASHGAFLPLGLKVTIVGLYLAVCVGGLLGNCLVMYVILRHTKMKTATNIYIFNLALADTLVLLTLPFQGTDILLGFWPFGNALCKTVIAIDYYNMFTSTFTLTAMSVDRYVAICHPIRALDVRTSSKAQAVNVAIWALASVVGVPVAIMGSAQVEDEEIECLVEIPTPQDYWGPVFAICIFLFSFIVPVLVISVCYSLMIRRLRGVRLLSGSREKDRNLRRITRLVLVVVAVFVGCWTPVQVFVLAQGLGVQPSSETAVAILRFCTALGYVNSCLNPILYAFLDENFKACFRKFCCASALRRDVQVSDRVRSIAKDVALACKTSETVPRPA

In patent US8093272B2 (priority 2004, dated 2012):

How the values were obtained:
[1] = biological target: human μ-opiate receptor (Homo sapiens, UniProt P35372); assay: Measurement of μ-binding ([3H]-naloxone displacement, CHO-K1 membrane preparation, WGA-SPA beads); conditions: test substance 1 μM; displacement of [3H]-naloxone 1 nmol/l
[2] = biological target: ORL1 receptor (Homo sapiens, UniProt P41146); assay: Measurement of ORL1 binding (3H-nociceptin/orphanin FQ, membranes of recombinant CHO-ORL1 cells); conditions: c=1 μM; 3H-nociceptin/orphanin FQ 0.5 nM

Row | SMILES | μ-binding [1 μM], % inhibition [1] | ORL1-binding, [1 μM], % inhibition [2]
1 | Cc1ccccc1CC1(N(C)C)CCC(NC(=O)c2ccc(Cc3ccccc3)o2)CC1 (stereo not drawn) | 62% | –
2 | Cc1sc(-c2ccccc2)nc1CC(=O)NC1CCC(c2cccs2)(N(C)C)CC1 (stereo not drawn) | 92% | 55%
3 | Cc1sc(-c2ccccc2)nc1CC(=O)NC1CCC(Cc2cccc(F)c2)(N(C)C)CC1 (stereo not drawn) | 53% | –
4 | Cc1sc(-c2ccccc2)nc1CC(=O)NC1CCC(c2ccccc2)(N2CCCCC2)CC1 (stereo not drawn) | 59% | –
5 | Cc1onc(-c2ccccc2Cl)c1C(=O)NC1CCC(c2cccc(F)c2)(N(C)C)CC1 (stereo not drawn) | 67% | 92%
6 | Cc1onc(-c2ccccc2Cl)c1C(=O)NC1CCC(Cc2cccc(Cl)c2)(N(C)C)CC1 (stereo not drawn) | 65% | –
7 | CN(C)C1(Cc2ccccc2F)CCC(NC(=O)c2cccnc2Oc2ccccc2)CC1 (stereo not drawn) | 53% | –
8 | CN(C)C1(c2cccc(F)c2)CCC(NC(=O)c2cccnc2Sc2ccc(Cl)cc2)CC1 (stereo not drawn) | 92% | 55%
9 | Cc1ccccc1CC1(N(C)C)CCC(NC(=O)c2nn(-c3ccccc3)nc2C)CC1 (stereo not drawn) | 73% | –
10 | O=C(NC1CCC(Cc2ccccc2)(N2CCCC2)CC1)c1cccnc1Oc1ccccc1 (stereo not drawn) | 60% | –
11 | Cc1nn(-c2ccccc2)nc1C(=O)NC1CCC(Cc2ccc(F)cc2)(N(C)C)CC1 (stereo not drawn) | 69% | –
12 | Cc1onc(-c2c(F)cccc2Cl)c1C(=O)NC1CCC(c2ccccc2)(N(C)C)CC1 (stereo not drawn) | 78% | 69%
13 | CN(C)C1(CCc2ccccc2)CCC(NC(=O)c2cccnc2Oc2ccccc2)CC1 (stereo not drawn) | 65% | –
14 | Cc1ccccc1CC1(N(C)C)CCC(NC(=O)Cc2nc(-c3ccccc3)sc2C)CC1 (stereo not drawn) | 58% | –
15 | Cc1ccc(CC2(N(C)C)CCC(NC(=O)c3nn(-c4ccccc4)nc3C)CC2)cc1 (stereo not drawn) | 64% | –
16 | Cc1cccc(CC2(N(C)C)CCC(NC(=O)c3ccc(Cc4ccccc4)o3)CC2)c1 (stereo not drawn) | 60% | –
17 | Cc1onc(-c2c(F)cccc2Cl)c1C(=O)NC1CCC(c2cccc(F)c2)(N(C)C)CC1 (stereo not drawn) | 66% | 71%
18 | CN(C)C1(c2ccccn2)CCC(NC(=O)c2cccnc2Sc2ccc(Cl)cc2)CC1 (stereo not drawn) | 92% | 50%
19 | CCCc1c(C(=O)NC2CCC(c3cccc(F)c3)(N(C)C)CC2)cnn1-c1ccccc1 (stereo not drawn) | 100% | 80%
20 | Cc1nn(-c2ccccc2)nc1C(=O)NC1CCC(Cc2ccccc2)(N2CCCCC2)CC1 (stereo not drawn) | 96% | 61%
21 | Cc1nn(-c2ccccc2)nc1C(=O)NC1CCC(c2ccccc2)(N(C)C)CC1 (stereo not drawn) | 100% | 88%
22 | CN(C)C1(Cc2ccccc2F)CCC(NC(=O)c2ccc(Cc3ccccc3)o2)CC1 (stereo not drawn) | 68% | –
23 | Cc1onc(-c2c(Cl)cccc2Cl)c1C(=O)NC1CCC(Cc2ccccc2)(N2CCCC2)CC1 (stereo not drawn) | 99% | 68%
24 | Cc1onc(-c2c(Cl)cccc2Cl)c1C(=O)NC1CCC(Cc2ccccc2)(N2CCCCC2)CC1 (stereo not drawn) | 77% | –
25 | CN(C)C1(Cc2cccc(Cl)c2)CCC(NC(=O)c2cnn(-c3ccc(Cl)cc3)c2C(F)(F)F)CC1 (stereo not drawn) | 56% | –

Row | SMILES | μ-binding [1 μM], % inhibition [1] | ORL1-binding, [1 μM], % inhibition [2]
26 | Cc1nn(-c2ccccc2)nc1C(=O)NC1CCC(c2ccccc2)(N2CCCCC2)CC1 (stereo not drawn) | 94% | 52%
27 | CN(C)C1(Cc2cccc(F)c2)CCC(NC(=O)c2ccc(Cc3ccccc3)o2)CC1 (stereo not drawn) | 60% | –
28 | Cc1onc(-c2c(Cl)cccc2Cl)c1C(=O)NC1CCC(Cc2ccccc2F)(N(C)C)CC1 (stereo not drawn) | 70% | –
29 | O=C(NC1CCC(Cc2ccccc2)(N2CCCC2)CC1)c1cccnc1Sc1ccc(Cl)cc1 (stereo not drawn) | 78% | –
30 | Cc1sc(-c2ccccc2)nc1CC(=O)NC1CCC(CCc2ccccc2)(N(C)C)CC1 (stereo not drawn) | 77% | –
31 | CN(C)C1(c2cccc(F)c2)CCC(NC(=O)c2cnn(-c3ccc(Cl)cc3)c2C(F)(F)F)CC1 (stereo not drawn) | 77% | –
32 | Cc1onc(-c2c(F)cccc2Cl)c1C(=O)NC1CCC(Cc2ccccc2)(N2CCCC2)CC1 (stereo not drawn) | 54% | –
33 | Cc1onc(-c2c(F)cccc2Cl)c1C(=O)NC1CCC(CCc2ccccc2)(N(C)C)CC1 (stereo not drawn) | 80% | –
34 | CN(C)C1(Cc2ccccc2F)CCC(NC(=O)c2cccnc2Sc2ccc(Cl)cc2)CC1 (stereo not drawn) | 71% | –
35 | CN(C)C1(Cc2cccc(Cl)c2)CCC(NC(=O)c2cccnc2Sc2ccc(Cl)cc2)CC1 (stereo not drawn) | 59% | –
36 | O=C(NC1CCC(c2ccccc2)(N2CCCCC2)CC1)c1ccc(Cc2ccccc2)o1 (stereo not drawn) | 74% | –
37 | Cc1onc(-c2c(Cl)cccc2Cl)c1C(=O)NC1CCC(c2cccc(F)c2)(N(C)C)CC1 (stereo not drawn) | 65% | 64%
38 | Cc1cccc(CC2(N(C)C)CCC(NC(=O)c3nn(-c4ccccc4)nc3C)CC2)c1 (stereo not drawn) | 58% | –
39 | Cc1onc(-c2c(Cl)cccc2Cl)c1C(=O)NC1CCC(CCc2ccccc2)(N(C)C)CC1 (stereo not drawn) | 62% | –
40 | CN(C)C1(Cc2ccccc2)CCC(NC(=O)c2cccnc2Oc2ccccc2)CC1 (stereo not drawn) | 53% | –
41 | Cc1nn(-c2ccccc2)nc1C(=O)NC1CCC(Cc2cccc(Cl)c2)(N(C)C)CC1 (stereo not drawn) | 55% | –
42 | Cc1oc(-c2ccc(Cl)cc2)cc1C(=O)NC1CCC(c2cccc(F)c2)(N(C)C)CC1 (stereo not drawn) | 83% | 74%
43 | Cc1onc(-c2ccccc2Cl)c1C(=O)NC1CCC(CCc2ccccc2)(N(C)C)CC1 (stereo not drawn) | 77% | –
44 | CN(C)C1(c2cccs2)CCC(NC(=O)c2cccnc2Oc2ccccc2)CC1 (stereo not drawn) | 89% | 67%
45 | CN(C)C1(c2ccccc2)CCC(NC(=O)c2cccnc2Oc2ccccc2)CC1 (stereo not drawn) | 92% | 63%
46 | CN(C)C1(Cc2ccccc2)CCC(NC(=O)c2ccc(Cc3ccccc3)o2)CC1 (stereo not drawn) | 77% | –
47 | Cc1onc(-c2ccccc2Cl)c1C(=O)NC1CCC(c2ccccc2)(N(C)C)CC1 (stereo not drawn) | 85% | 88%
48 | CN(C)C1(CCc2ccccc2)CCC(NC(=O)c2ccc(Cc3ccccc3)o2)CC1 (stereo not drawn) | 65% | –
49 | Cc1nn(-c2ccccc2)nc1C(=O)NC1CCC(CCc2ccccc2)(N(C)C)CC1 (stereo not drawn) | 55% | –
50 | CN(C)C1(c2ccccn2)CCC(NC(=O)c2cccnc2Oc2ccccc2)CC1 (stereo not drawn) | 75% | –
